A word on the Emax: it is the maximal effect, on the per cent scale that the assay sets. As a reminder, the EC50 is the concentration needed to bring the measured effect to its halfway point. A higher EC50 goes with lower potency in that assay.

One assay deals with T1, CRF1R (Homo sapiens, UniProt P34998).
T1 sequence (P34998 24-415): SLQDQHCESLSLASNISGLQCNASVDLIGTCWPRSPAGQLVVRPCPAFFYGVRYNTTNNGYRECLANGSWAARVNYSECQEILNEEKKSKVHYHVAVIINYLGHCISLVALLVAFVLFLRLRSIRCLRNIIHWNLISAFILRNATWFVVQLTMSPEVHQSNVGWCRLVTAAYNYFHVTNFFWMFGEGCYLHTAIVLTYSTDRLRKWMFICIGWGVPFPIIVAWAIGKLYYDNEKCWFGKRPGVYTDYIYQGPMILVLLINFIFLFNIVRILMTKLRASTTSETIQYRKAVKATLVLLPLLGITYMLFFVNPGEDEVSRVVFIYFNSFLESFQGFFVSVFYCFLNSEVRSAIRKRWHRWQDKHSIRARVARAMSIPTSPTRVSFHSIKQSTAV
Put plainly: CRF1R agonist activation (EC50 / Emax), called comparative CRF binding. It is filed as cell-based. Conditions: for Emax: read-out: CRF1R Emax; for EC50: CRF1R EC50. The procedure, abridged: (§1)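 Peptides are tested on cells bearing CRF1R or CRF2R, full length or as ligand-binding-domain constructs coupled to reporters or G proteins. Activation is scored by cAMP rise, measured in lysates or by CRE-reporter output, against vehicle control.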

The target in the next assay is T2, CRF2R (Homo sapiens, UniProt Q13324).
T2 sequence (Q13324 1-411): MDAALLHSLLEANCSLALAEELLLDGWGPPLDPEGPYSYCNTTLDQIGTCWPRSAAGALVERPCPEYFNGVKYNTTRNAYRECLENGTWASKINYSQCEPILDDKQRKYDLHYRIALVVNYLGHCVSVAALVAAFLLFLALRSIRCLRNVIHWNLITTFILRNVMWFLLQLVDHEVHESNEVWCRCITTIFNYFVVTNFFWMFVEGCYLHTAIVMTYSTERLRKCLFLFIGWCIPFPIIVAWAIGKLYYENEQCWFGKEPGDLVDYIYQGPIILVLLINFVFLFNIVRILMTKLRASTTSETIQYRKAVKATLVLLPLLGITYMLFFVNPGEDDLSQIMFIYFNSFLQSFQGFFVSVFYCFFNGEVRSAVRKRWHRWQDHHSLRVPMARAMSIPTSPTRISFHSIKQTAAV
Put plainly: CRF2R agonist activation (EC50 / Emax), called comparative CRF binding. It is filed as cell-based. Conditions: for Emax: read-out: CRF2R Emax. The method in brief: as §1

`CC[C@H](C)[C@H](NC(=O)[C@H](CCCNC(=N)N)NC(=O)[C@H](C)NC(=O)[C@H](CC(C)C)NC(=O)[C@H](CC(C)C)NC(=O)[C@H](CCCNC(=N)N)NC(=O)[C@H](C)NC(=O)[C@H](CC(N)=O)NC(=O)[C@H](CC(N)=O)NC(=O)[C@H](C)NC(=O)[C@H](C)NC(=O)[C@H](CCC(N)=O)NC(=O)[C@H](CCC(N)=O)NC(=O)[C@H](CCCCN)NC(=O)[C@H](CCC(=O)O)NC(=O)[C@H](CCCCN)NC(=O)[C@H](CCC(=O)O)NC(=O)[C@H](CCC(N)=O)NC(=O)[C@H](CCCCN)NC(=O)[C@H](CCC(=O)O)NC(=O)[C@@H](NC(=O)[C@H](CCC(=O)O)NC(=O)[C@@H](NC(=O)[C@@H](NC(=O)[C@H](CCCCN)NC(=O)[C@H](CCCNC(=N)N)NC(=O)[C@H](CC(C)C)NC(=O)[C@H](CC(C)C)NC(=O)[C@@H](NC(=O)[C@H](CCC(N)=O)NC(=O)[C@@H]1CCCN1C(=O)[C@H](CC(C)C)NC(=O)[C@H](CC(=O)O)NC(=O)[C@@H](NC(=O)[C@H](CO)NC(=O)[C@@H](NC(=O)[C@@H]1CCCN1C(=O)[C@@H]1CCCN1C(=O)CNC(=O)[C@@H]1CCC(=O)N1)[C@@H](C)CC)[C@@H](C)CC)[C@@H](C)CC)C(C)C)[C@@H](C)CC)[C@@H](C)CC)C(N)=O` [compound 294]: the Emax at CRF1R is 13.6%; on CRF2R it was 100%.
For `CC[C@H](C)[C@H](NC(=O)[C@@H](NC(=O)[C@H](CC(=O)O)NC(=O)[C@H](CC(C)C)NC(=O)[C@H](CC(C)C)NC(=O)[C@H](CC(C)C)NC(=O)[C@H](CCCNC(=N)N)NC(=O)[C@H](CC(N)=O)NC(=O)[C@H](CC(N)=O)NC(=O)[C@H](C)NC(=O)[C@H](C)NC(=O)[C@H](CCC(N)=O)NC(=O)[C@H](CCC(N)=O)NC(=O)[C@H](CCCCN)NC(=O)[C@H](CCC(=O)O)NC(=O)[C@H](CCCCN)NC(=O)[C@H](CCC(=O)O)NC(=O)[C@H](CCC(N)=O)NC(=O)[C@H](CCCCN)NC(=O)[C@H](CCC(=O)O)NC(=O)[C@@H](NC(=O)[C@H](CCC(=O)O)NC(=O)[C@@H](NC(=O)[C@H](CCSC)NC(=O)[C@H](CCCCN)NC(=O)[C@H](CCCNC(=N)N)NC(=O)[C@H](CC(C)C)NC(=O)[C@H](CC(C)C)NC(=O)[C@@H](NC(=O)[C@@H](NC(=O)[C@@H]1CCCN1C(=O)[C@H](CC(C)C)NC(=O)[C@H](CC(=O)O)NC(=O)[C@@H](NC(=O)[C@H](CO)NC(=O)[C@@H](NC(=O)[C@@H]1CCCN1C(=O)[C@@H]1CCCN1C(=O)CNC(=O)[C@@H]1CCC(=O)N1)[C@@H](C)CC)[C@@H](C)CC)[C@@H](C)CC)[C@@H](C)CC)[C@@H](C)CC)[C@@H](C)CC)[C@@H](C)O)C(N)=O` [compound 36] the same measures were 33% and 73%.
With `CC[C@H](C)[C@H](NC(=O)[C@@H](NC(=O)[C@H](CC(=O)O)NC(=O)[C@H](CC(C)C)NC(=O)[C@H](CC(C)C)NC(=O)[C@H](CC(C)C)NC(=O)[C@H](CCCNC(=N)N)NC(=O)[C@H](CC(N)=O)NC(=O)[C@H](CC(N)=O)NC(=O)[C@H](C)NC(=O)[C@H](C)NC(=O)[C@H](CCC(N)=O)NC(=O)[C@H](CCC(N)=O)NC(=O)[C@H](CCCCN)NC(=O)[C@H](CCC(=O)O)NC(=O)[C@H](CCCCN)NC(=O)[C@H](CCC(=O)O)NC(=O)[C@H](CCC(N)=O)NC(=O)[C@H](CCCCN)NC(=O)[C@H](CCC(=O)O)NC(=O)[C@@H](NC(=O)[C@H](CCC(=O)O)NC(=O)[C@@H](NC(=O)[C@H](CCSC)NC(=O)[C@H](CCCCN)NC(=O)[C@H](CCCNC(=N)N)NC(=O)[C@H](CC(C)C)NC(=O)[C@H](CC(C)C)NC(=O)[C@@H](NC(=O)[C@@H](NC(=O)[C@@H]1CCCN1C(=O)[C@H](CC(C)C)NC(=O)[C@H](CC(=O)O)NC(=O)[C@@H](NC(=O)[C@H](CO)NC(=O)[C@@H](NC(=O)[C@@H]1CCCN1C(=O)[C@@H]1CCCN1C(=O)CNC(=O)[C@@H]1CCC(=O)N1)[C@@H](C)CC)[C@@H](C)CC)[C@@H](C)O)[C@@H](C)CC)[C@@H](C)CC)[C@@H](C)CC)[C@@H](C)O)C(N)=O` [compound 50], on CRF1R, the half-maximal effective concentration (EC50) is more than 1000 nM and the Emax amounted to 42%. At CRF2R, the midpoint of the response, the EC50, lay at 19 nM and the Emax came out at 94%.
For the compound `CC[C@H](C)[C@H](NC(=O)[C@@H](NC(=O)[C@H](CC(=O)O)NC(=O)[C@H](CC(C)C)NC(=O)[C@H](CC(C)C)NC(=O)[C@H](CC(C)C)NC(=O)[C@H](C)NC(=O)[C@H](CC(N)=O)NC(=O)[C@H](CC(N)=O)NC(=O)[C@H](C)NC(=O)[C@H](C)NC(=O)[C@H](CCC(N)=O)NC(=O)[C@H](CCC(N)=O)NC(=O)[C@H](CCCCN)NC(=O)[C@H](CCC(=O)O)NC(=O)[C@H](CCCCN)NC(=O)[C@H](CCC(=O)O)NC(=O)[C@H](CCC(N)=O)NC(=O)[C@H](CCCCN)NC(=O)[C@H](CCC(=O)O)NC(=O)[C@@H](NC(=O)[C@H](CCC(=O)O)NC(=O)[C@@H](NC(=O)[C@H](CCSC)NC(=O)[C@H](CCCCN)NC(=O)[C@H](CCCNC(=N)N)NC(=O)[C@H](CC(C)C)NC(=O)[C@H](CC(C)C)NC(=O)[C@H](Cc1ccc(O)cc1)NC(=O)[C@H](Cc1ccc(O)cc1)NC(=O)[C@@H]1CCCN1C(=O)[C@H](CC(C)C)NC(=O)[C@H](CC(=O)O)NC(=O)[C@@H](NC(=O)[C@H](CO)NC(=O)[C@@H](NC(=O)[C@@H]1CCCN1C(=O)[C@@H]1CCCN1C(=O)CNC(=O)[C@@H]1CCC(=O)N1)[C@@H](C)CC)[C@@H](C)CC)[C@@H](C)CC)[C@@H](C)CC)[C@@H](C)O)C(N)=O` [compound 226], on CRF1R, the EC50 was found to be 315 nM and the Emax was 95%. Moreover, at CRF2R, the EC50 came out at 7.6 nM and the Emax was determined as 100%.
In the case of `CC[C@H](C)[C@H](NC(=O)[C@H](CCCCN)NC(=O)[C@H](C)NC(=O)[C@H](CC(C)C)NC(=O)[C@H](CC(C)C)NC(=O)[C@H](CCCCN)NC(=O)[C@H](C)NC(=O)[C@H](CC(N)=O)NC(=O)[C@H](CC(N)=O)NC(=O)[C@H](C)NC(=O)[C@H](C)NC(=O)[C@H](CCC(N)=O)NC(=O)[C@H](CCC(N)=O)NC(=O)[C@H](CCCCN)NC(=O)[C@H](CCC(=O)O)NC(=O)[C@H](CCCCN)NC(=O)[C@H](CCC(=O)O)NC(=O)[C@H](CCC(N)=O)NC(=O)[C@H](CCCCN)NC(=O)[C@H](CCC(=O)O)NC(=O)[C@@H](NC(=O)[C@H](CCC(=O)O)NC(=O)[C@@H](NC(=O)[C@@H](NC(=O)[C@H](CCCCN)NC(=O)[C@H](CCCNC(=N)N)NC(=O)[C@H](CC(C)C)NC(=O)[C@H](CC(C)C)NC(=O)[C@H](CCC(N)=O)NC(=O)[C@H](Cc1ccccc1)NC(=O)[C@@H]1CCCN1C(=O)[C@H](CC(C)C)NC(=O)[C@H](CC(=O)O)NC(=O)[C@@H](NC(=O)[C@H](CO)NC(=O)[C@@H](NC(=O)[C@@H]1CCCN1C(=O)[C@@H]1CCCN1C(=O)CNC(=O)[C@@H]1CCC(=O)N1)[C@@H](C)CC)[C@@H](C)CC)C(C)C)[C@@H](C)CC)[C@@H](C)CC)C(N)=O` [compound 274], the Emax at CRF1R came to 80.9%; on CRF2R it was 100%.
In the case of `CC[C@H](C)[C@H](NC(=O)[C@@H](NC(=O)[C@H](CC(=O)O)NC(=O)[C@H](CC(C)C)NC(=O)[C@H](CC(C)C)NC(=O)[C@H](CC(C)C)NC(=O)[C@H](CCCNC(=N)N)NC(=O)[C@H](CC(N)=O)NC(=O)[C@H](CC(N)=O)NC(=O)[C@H](C)NC(=O)[C@H](C)NC(=O)[C@H](CCC(N)=O)NC(=O)[C@H](CCC(N)=O)NC(=O)[C@H](CCCCN)NC(=O)[C@H](CCC(=O)O)NC(=O)[C@H](CCCCN)NC(=O)[C@H](CCC(=O)O)NC(=O)[C@H](CCC(N)=O)NC(=O)[C@H](CCCCN)NC(=O)[C@H](CCC(=O)O)NC(=O)[C@@H](NC(=O)[C@H](CCC(=O)O)NC(=O)[C@@H](NC(=O)[C@H](CCSC)NC(=O)[C@H](CCCCN)NC(=O)[C@H](CCCNC(=N)N)NC(=O)[C@H](CC(C)C)NC(=O)[C@H](CC(C)C)NC(=O)[C@H](Cc1ccc(O)cc1)NC(=O)[C@H](CCCNC(=N)N)NC(=O)[C@@H]1CCCN1C(=O)[C@H](CC(C)C)NC(=O)[C@H](CC(=O)O)NC(=O)[C@@H](NC(=O)[C@H](CO)NC(=O)[C@@H](NC(=O)[C@@H]1CCCN1C(=O)[C@@H]1CCCN1C(=O)CNC(=O)[C@@H]1CCC(=O)N1)[C@@H](C)CC)[C@@H](C)CC)[C@@H](C)CC)[C@@H](C)CC)[C@@H](C)O)C(N)=O` [compound 65], on CRF1R, the EC50 is more than 100 nM and the Emax is 16%. On CRF2R, the EC50 was determined as 67.9 nM and the Emax came to 64%.

Source of the values: US6936585B2, “Corticotropin releasing factor 2 receptor agonists” (priority 2002, dated 2005).
